This is an account of results in patent US6791003B1.

This is a selection: effects in other tests are not listed, and their absence says nothing.

The nature of this data set: in vitro skin flux of fentanyl through cadaver skin in a diffusion cell. To be noted: first laminated layer alone, method of J. Pharm. Sci. (1983) 72:968.

With `CCC(=O)N(c1ccccc1)C1CCN(CCc2ccccc2)CC1`, the “flux of fentanyl from the first laminated layer through the skin” value was 0.2˜3.0 μg/cm^2/hr.
